Target: T1, human FcγRIa extracellular domain with C-terminal His tag (human, UniProt P12314 16-292)
T1 construct: not shown: His tag at the C terminus
Assay: SPR (Biacore), antibody captured, FcγR analyte

The chains behind the UniProt entries cited, without tags or fusion partners. Residues count along the entry.
UniProt P12314, 16-292: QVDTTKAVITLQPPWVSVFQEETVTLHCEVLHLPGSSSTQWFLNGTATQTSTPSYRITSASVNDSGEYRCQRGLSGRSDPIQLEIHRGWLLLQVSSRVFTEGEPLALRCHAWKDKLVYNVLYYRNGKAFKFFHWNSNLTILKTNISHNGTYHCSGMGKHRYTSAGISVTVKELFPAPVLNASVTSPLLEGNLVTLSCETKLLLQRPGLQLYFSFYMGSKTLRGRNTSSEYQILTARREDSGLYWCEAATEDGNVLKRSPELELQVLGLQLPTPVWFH

Row | Kd [nM] | Binder
1 | 13 | IL6R-BP542/IL6R-L (antibody, human IgG1, kappa, Y296F introduced into IL6R-BP230 (takes the place of Y296D); copies: 2 + 2) heavy: QVQLQESGPGLVKPSETLSLTCAVSGHSISHDHAWSWVRQPPGEGLEWIGFISYSGITNYNPSLQGRVTISRDNSKNTLYLQMNSLRAEDTAVYYCARSLARTTAMDYWGEGTLVTVSSASTKGPSVFPLAPSSKSTSGGTAALGCLVKDYFPEPVTVSWNSGALTSGVHTFPAVLQSSGLYSLSSVVTVPSSSLGTQTYICNVNHKPSNTKVDKKVEPKSCDKTHTCPPCPAPDLLGDDSVFLFPPKPKDTLMISRTPEVTCVVVDVSDEDGEVKFNWYVDGVEVHNAKTKPREEQFNSTYRVVSVLTVLHQDWLNGKEYKCKVSNKALPRPIEKTISKAKGQPREPQVYTLPPSRDELTKNQVSLTCLVKGFYPSDIAVEWESNGQPENNYKTTPPVLDSDGSFFLYSKLTVDKSRWQQGNVFSCSVMHEALHNHYTQESLSLSP light: not shown
2 | 9.9 | IL6R-BP545/IL6R-L (antibody, human IgG1, kappa, D356E introduced into IL6R-BP230; copies: 2 + 2) heavy: QVQLQESGPGLVKPSETLSLTCAVSGHSISHDHAWSWVRQPPGEGLEWIGFISYSGITNYNPSLQGRVTISRDNSKNTLYLQMNSLRAEDTAVYYCARSLARTTAMDYWGEGTLVTVSSASTKGPSVFPLAPSSKSTSGGTAALGCLVKDYFPEPVTVSWNSGALTSGVHTFPAVLQSSGLYSLSSVVTVPSSSLGTQTYICNVNHKPSNTKVDKKVEPKSCDKTHTCPPCPAPDLLGDDSVFLFPPKPKDTLMISRTPEVTCVVVDVSDEDGEVKFNWYVDGVEVHNAKTKPREEQDNSTYRVVSVLTVLHQDWLNGKEYKCKVSNKALPRPIEKTISKAKGQPREPQVYTLPPSREELTKNQVSLTCLVKGFYPSDIAVEWESNGQPENNYKTTPPVLDSDGSFFLYSKLTVDKSRWQQGNVFSCSVMHEALHNHYTQESLSLSP light: not shown
